Assay results as given in patent US8143374B2, “Polypeptide derivatives of parathyroid hormone (PTH)” (The General Hospital Corporation, priority 2006, dated 2012).

Tests used:
[1] = molecular target: T1, intact human PTHR (Homo sapiens, UniProt Q03431); assay: Stimulation of inositol phosphate production in transfected COS-7 cells; type: cell-based; details: 1×10^−6 M; COS-7 cells transfected with the PTHR
T1 sequence (Q03431 27-593): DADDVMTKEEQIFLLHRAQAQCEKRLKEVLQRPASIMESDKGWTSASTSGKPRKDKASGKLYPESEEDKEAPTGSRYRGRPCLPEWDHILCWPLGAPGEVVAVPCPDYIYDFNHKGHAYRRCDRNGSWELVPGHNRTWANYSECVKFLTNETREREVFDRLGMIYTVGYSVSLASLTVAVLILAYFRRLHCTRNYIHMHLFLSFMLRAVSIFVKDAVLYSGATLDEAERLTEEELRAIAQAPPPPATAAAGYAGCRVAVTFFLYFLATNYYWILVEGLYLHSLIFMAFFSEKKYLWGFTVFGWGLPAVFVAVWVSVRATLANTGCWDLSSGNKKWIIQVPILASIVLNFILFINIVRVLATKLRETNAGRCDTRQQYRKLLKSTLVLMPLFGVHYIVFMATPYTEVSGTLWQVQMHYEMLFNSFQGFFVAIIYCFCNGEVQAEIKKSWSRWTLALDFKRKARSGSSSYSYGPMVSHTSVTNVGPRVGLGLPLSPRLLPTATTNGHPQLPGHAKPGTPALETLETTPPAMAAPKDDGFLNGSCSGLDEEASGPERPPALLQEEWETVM
Description: Stimulation of intracellular cAMP and inositol phosphate—The capacities of the ligands to stimulate adenylyl cyclase activity were assessed in intact ROS 17/2.8 cells, as described (Shimizu, M., (2001) Endocrinology 142:3068-3074). In brief, cells in 24-well plates were incubated in binding buffer containing the phosphodiesterase inhibitor, IBMX, with or without a peptide ligand (3×10^−9 to 1×10^−5 M) for 30 minutes at room temperature. The medium was removed and the cells were lysed by adding 50 mM HCl and freezing the plate on dry ice. The cAMP in the thawed lysate was then quantified by radioimmuno assay. The stimulation of production of inositol phosphates (IP1+IP2+IP3) was assessed in COS-7 cells transfected with the intact human PTHR, as described previously (Shimizu, M., (2001) Endocrinology 142:3068-3074). In brief, intact transfected COS-7 cells in 24-well plates were labeled with ^3H-myo-inositol (specific activity: 25 Ci/mmol, Perkin Elmer/NEN Life Science Products, Boston, Mass.) for 16 hours, treated for 30 minutes with ligand in the presence of LiCl2 (30 mM), treated with ice cold trichloroacetic acid (5%) for two hours; the acid lysates were then ether extracted, separated by ion-exchange chromatography, and eluted ^3H-inositol phosphates were quantified by liquid scintillation counting. […]

[2] = Circular dichroism spectroscopy, helical residues per peptide chain; type: physicochemical; details: hPTH(1-31)NH2 analogs; calculated from [θ]222
Description: Circular Dichroism—CD spectra were obtained on a JASCO J-600 spectropolarimeter at 20° C. Four spectra were averaged and the data smoothed by the JASCO software. The instrument was calibrated with ammonium (+)-10-camphorsulfonate. Peptide concentrations were verified from the absorption at 280 nm, using an extinction coefficient of 5700 M^−1 for the single tryptophan. Data are expressed as the number of helical residues per peptide chain, as calculated from −[θ]222×30/28,000, where [θ]222 is the mean residue elipticity ([θ]) at 222 nm, as was described previously (Barbier, J. R., et al. (2005) J Biol Chem. 280:23771-23777).

increase in total IP levels [1]: four-fold increase
CD helical residues [2]: 8
SMILES: CC[C@H](C)[C@H](NC(=O)[C@H](CCC(=O)O)NC(=O)[C@H](CO)NC(=O)[C@@H](NC(=O)[C@@H](N)CO)C(C)C)C(=O)N[C@@H](CCC(N)=O)C(=O)N[C@@H](CC(C)C)C(=O)N[C@@H](CCSC)C(=O)N[C@@H](Cc1c[nH]cn1)C(=O)N[C@@H](CC(N)=O)C(=O)N[C@@H](CC(C)C)C(=O)NCC(=O)N[C@@H](CCCCN)C(=O)N[C@@H](Cc1c[nH]cn1)C(=O)N[C@@H](CC(C)C)C(=O)N[C@@H](CC(N)=O)C(=O)N[C@@H](CO)C(=O)N[C@@H](CCSC)C(=O)N[C@@H](CCC(=O)O)C(=O)N[C@@H](CCCNC(=N)N)C(=O)N[C@H](C(=O)N[C@@H](CCC(=O)O)C(=O)N[C@@H](Cc1c[nH]c2ccccc12)C(=O)N[C@@H](CC(C)C)C(=O)N[C@@H](CCCNC(=N)N)C(=O)N[C@@H](CCCCN)C(=O)N[C@@H](CCCCN)C(=O)N[C@@H](CC(C)C)C(=O)N[C@@H](CCC(N)=O)C(=O)N[C@@H](CC(=O)O)C(=O)N[C@H](C(N)=O)C(C)C)C(C)C [PTH(1-31)NH2, reference compound]
